For 1 molecule, Papp results are on record in PMC10023679, “Amide-to-ester substitution as a stable alternative to N-methylation for increasing membrane permeability in cyclic peptides” (Nature Communications, 2023).

The series is described as follows: Caco-2 assay (permeability across cell monolayers). The note with it: human, 1 μM compounds in HBSS (pH 7.4) containing 10 mM HEPES and 1% DMSO, 3 h incubation at 37 °C, read-out: Caco-2 permeability Pa. Type of series: in vitro ADME. The method, then: The permeability assay across cell monolayers was conducted according to a previously reported procedure[57] using Millicell cell culture insert plates (Millipore). 4.2 × 10^4 Caco-2 cells were spread on each insert chamber and culture medium was added in a receiver plate. The cells were cultured in the insert chambers at 37 °C for 22–25 days. The trans-epithelial electrical resistance (TEER) was measured to confirm the value in each well is above 300 Ω cm^2. The medium in the lower chamber and upper chamber was removed by aspiration. 0.4 mL of transport buffer (HBSS buffer containing 10 mM HEPES, pH 7.4) was added to the upper chamber and 0.8 mL of the same buffer was added to the lower chamber. After incubating the plate for 30 min at 37 °C, the buffer was removed. 0.42 mL of peptide solution in transport buffer was added to the upper chamber and 20 μL was aliquoted. 0.8 mL of transport buffer was added to the lower chamber. For evaluation in the basolateral-to-apical direction, 0.82 mL of peptide solution in transport buffer was added to the lower chamber and 20 μL was aliquoted. 0.4 mL of transport buffer was added to the upper chamber. The plate was incubated at 37 °C. […] After incubating the plate at 37 °C for 1 h, 200 µL of lower chamber solution was transferred to a 96-well black plate and the fluorescence at ex/em = 485/538 nm was measured. […]

On to `CC(C)C[C@@H]1NC(=O)[C@H](Cc2ccc(O)cc2)NC(=O)[C@H]2CCCN2C(=O)[C@H](CC(C)C)NC(=O)[C@H](CC(C)C)NC(=O)[C@@H](CC(C)C)NC1=O` [CP1], for which the Papp at 3 h, 1 μM worked out at 0.4 ×10⁻⁶ cm/s.
